For the assay, the target named is PHD1 enzyme (residues 1-407) (Homo sapiens (Human), UniProt Q96KS0). Description: PHD1 Enzyme Assay (UPLC-MS detection of hydroxylated peptide product). It counts as biochemical. To be noted: 20 nM, 60 min pre-incubation at room temperature.

The chains behind the UniProt entries cited, without tags or fusion partners.
UniProt Q96KS0, whole entry: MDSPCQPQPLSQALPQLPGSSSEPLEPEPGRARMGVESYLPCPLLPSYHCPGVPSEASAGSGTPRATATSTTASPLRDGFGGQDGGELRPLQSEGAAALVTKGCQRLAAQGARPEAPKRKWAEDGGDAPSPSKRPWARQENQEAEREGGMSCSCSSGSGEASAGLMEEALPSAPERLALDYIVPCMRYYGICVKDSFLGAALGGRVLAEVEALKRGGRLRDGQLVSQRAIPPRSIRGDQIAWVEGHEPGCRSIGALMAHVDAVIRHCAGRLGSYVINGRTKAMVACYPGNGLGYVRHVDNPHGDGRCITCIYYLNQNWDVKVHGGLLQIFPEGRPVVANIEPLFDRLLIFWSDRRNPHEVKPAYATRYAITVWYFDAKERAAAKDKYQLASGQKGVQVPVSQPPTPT

`CC1(C(=O)Nc2cc(-c3ccc(C#N)c(F)c3)n3ncnc3c2)COC1` [Example 166, N-[5-(4-cyano-3-fluorophenyl)-[1,2,4]triazolo[1,5-a]pyridin-7-yl]-3-methyloxetane-3-carboxamide]: the concentration for half-maximal inhibition (IC50) was 630 nM. On to `N#Cc1ccc(-c2cc(C(=O)NCCO)cc3ncnn23)cc1` [Example 71, 5-(4-cyanophenyl)-N-(2-hydroxyethyl)-[1,2,4]triazolo[1,5-a]pyridine-7-carboxamide], for which the concentration for half-maximal inhibition (IC50) worked out at 904 nM. Regarding `CN(C)CCOC(=O)Nc1cc(-c2ccc(C#N)c(F)c2)n2ncnc2c1` [Example 199, 2-(dimethylamino)ethyl N-[5-(4-cyano-3-fluorophenyl)-[1,2,4]triazolo[1,5-a]pyridin-7-yl]carbamate], the IC50 came to 111 nM. Consider `N#Cc1ccc(-c2cc(NS(=O)(=O)C3CC3)cc3ncnn23)cc1F` [Example 148, N-[5-(4-Cyano-3-fluorophenyl)-[1,2,4]triazolo[1,5-a]pyridin-7-yl]cyclopropanesulfonamide], for which half-maximal inhibition (IC50) required 126 nM. `N#Cc1ccc(-c2cc(OCC3CCCO3)cc3ncnn23)cc1F` (centres unmarked) [Example 131] registered an IC50 of 168 nM.

Take `CC(C)NC(=O)c1cc(-c2ccc(C#N)cc2)n2ncnc2c1` [Example 66, 5-(4-cyanophenyl)-N-(propan-2-yl)-[1,2,4]triazolo[1,5-a]pyridine-7-carboxamide]: inhibition was half-maximal at 613 nM (IC50). The value for `N#Cc1ccc(-c2cc(N)nc3ncnn23)cc1` [Example 217, 4-{5-Amino-[1,2,4]triazolo[1,5-a]pyrimidin-7-yl}benzonitrile] was 376 nM; that for `CC(=O)Nc1cc(-c2ccc(C#N)nc2C)n2ncnc2c1` [Example 241, N-[5-(6-Cyano-2-methylpyridin-3-yl)-[1,2,4]triazolo[1,5-a]pyridin-7-yl]acetamide] was 152 nM; that for `Cc1nc(C#N)ccc1-c1cc(N)cc2ncnn12` [Example 212, 5-{7-Amino-[1,2,4]triazolo[1,5-a]pyridin-5-yl}-6-methylpyridine-2-carbonitrile] was 79 nM. As to `N#Cc1ccc(-c2cc(NCC(F)F)cc3ncnn23)cc1` [Example 106, 4-{7-[(2,2-difluoroethyl)amino]-[1,2,4]triazolo[1,5-a]pyridin-5-yl}benzonitrile], the IC50 was 10 nM. The value for `N#Cc1ccc(-c2cc(NCC3CCCO3)cc3ncnn23)cc1` (centres unmarked) [Example 112, 4-{7-[(oxolan-2-ylmethyl)amino]-[1,2,4]triazolo[1,5-a]pyridin-5-yl}benzonitrile] was 20 nM; that for `Cc1cc(C#N)ccc1-c1cc(NC(=O)C2CC2(F)F)cc2ncnn12` (centres unmarked) [Example 258, N-[5-(4-Cyano-2-methylphenyl)-[1,2,4]triazolo[1,5-a]pyridin-7-yl]-2,2-difluorocyclopropane-1-carboxamide] was 152 nM. `N#Cc1ccc(-c2cc(C(=O)Nc3ccc(Cl)cc3)cc3ncnn23)cc1` [Example 52, N-(4-chlorophenyl)-5-(4-cyanophenyl)-[1,2,4]triazolo[1,5-a]pyridine-7-carboxamide] gave an IC50 of 531 nM.

In turn, `CC(=O)Nc1cc(-c2ccc(C#N)cc2Cl)n2ncnc2c1` [Example 261, N-[5-(2-Chloro-4-cyanophenyl)-[1,2,4]triazolo[1,5-a]pyridin-7-yl]acetamide] yielded a 50% inhibitory concentration (IC50) of 96 nM. The value for `N#Cc1ccc(-c2cc(N3CCOCC3)cc3ncnn23)cc1F` [Example 137, 2-fluoro-4-[7-(morpholin-4-yl)-[1,2,4]triazolo[1,5-a]pyridin-5-yl]benzonitrile] was 145 nM; that for `Cn1cnc(CNC(=O)c2cc(-c3ccc(C#N)cc3)n3ncnc3c2)c1` [Example 61, 5-(4-cyanophenyl)-N-[(1-methyl-1H-imidazol-4-yl)methyl]-[1,2,4]triazolo[1,5-a]pyridine-7-] was 392 nM; that for `Cc1ccc2ncnn2c1-c1ccc(C#N)c(F)c1` [Example 19, 2-fluoro-4-{6-methyl-[1,2,4]triazolo[1,5-a]pyridin-5-yl}benzonitrile] was 665 nM.

The IC50 is the point on the concentration scale where inhibition reaches its midpoint. Lower therefore signals greater potency.

These data come from patent publication US10287286B2, “Compounds” (Takeda Pharmaceutical Company Limited, priority 2015, dated 2019).
